## Binding of CDR-mutated scFvs to a peptide of the spike HR2 region

Values reported by Li et al. 2023, doi:10.1038/s41467-023-39022-2 (FLAb copy).

Binding partner: SARS-CoV-2 spike HR2 peptide, sequence PDVDLGDISGINAS.

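The starting antibody came from a phage panning campaign against this peptide. The variants were designed computationally from a first round of random CDR variants and then made and measured. Group labels follow the data file (Ctrl: baseline library sampled from a position-specific scoring matrix, with some repeated check sequences; Rand: our label for a block that the file lists under HC and that is probably the random mutants of the ten best first-round binders; GP: Gaussian process model; GPLM: also part of the Gaussian process libraries; HC: hill climbing; Gen: genetic algorithm; Gibbs: Gibbs sampling; a sequence that several methods proposed may carry one label only). In AlphaSeq, yeast of one mating type display the scFv and yeast of the other type display the target. The frequency of each diploid, read from paired DNA barcodes, reflects how well the two displayed proteins bind. A regression on co-assayed BCL2-family reference pairs converts the normalised counts of each replicate to an apparent Kd. There are six technical replicates.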

Parent scFv Ab-14: VH joined to VL by three GGGGS repeats. Changes lie in the light chain CDRs alone.
VH: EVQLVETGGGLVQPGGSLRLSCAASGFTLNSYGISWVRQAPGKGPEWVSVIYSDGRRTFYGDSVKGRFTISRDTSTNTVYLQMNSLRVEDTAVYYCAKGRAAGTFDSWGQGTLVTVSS
VL: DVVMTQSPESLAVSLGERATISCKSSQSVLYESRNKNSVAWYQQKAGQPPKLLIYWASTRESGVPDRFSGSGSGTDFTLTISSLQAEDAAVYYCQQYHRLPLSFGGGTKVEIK

The parent's light chain CDRs are KSSQSVLYESRNKNSVA, WASTRES, QQYHRLPLS; each variant's own CDRs replace them letter for letter. This list holds designs with at most six substitutions. Kd is apparent (estimated from mating counts) and averaged on the log scale over replicates with a signal. Smaller is tighter. "nd" marks a missing value. The strain was present, yet no cells mated with the target were sequenced in any replicate, which points to weak or no binding. A sequence measured in both rounds can read differently, since the two assays cover different ranges. In the paper, a design with two or fewer of six values counts as a poor binder. Of ten entries with the parent sequence, four were seen in most replicates (averages 2.2 nM to 240 nM), three in one and three in none, so single entries are noisy. Nonspecific signal, from three strains lacking the peptide, appeared in 4% of pairings of all light chain designs, centred on 430 nM (5% of these signals below 38 nM); values are not corrected for it. For each scFv, signals with the empty controls are counted beside the result.

For KLRTSVMLESRNKNSVA / SASTRES / QQYHRLPLS [GP_Gibbs], the assay gave 1.1 nM (6 of 6 replicates; controls 2 of 18). For KLYQSYLYESRNKNSVA / NASTRES / QQYHRLPLS [GP_Gen], the assay gave 560 pM (6 of 6 replicates; controls 4 of 18). For KSMQSCLGESRNCNSVA / SASTREL / QQYHRLPLS [GP_Gibbs], the assay gave 3.0 nM (6 of 6 replicates; controls 1 of 18). For KFEQSVLYESRNKNAVA / NASQRES / QQYHRLPLS [GP_Gen], the assay gave 530 pM (6 of 6 replicates; controls 3 of 18). Variant KLQQSVGYESRNKNSVA / NASTRMS / QQYHRLPLS [GP_Gen] gave 1.3 nM (6 of 6 replicates; controls 1 of 18). Variant KLSQSWLYESRNKNSVA / GASSRES / QQYHRLPLS [GP_HC] gave 730 pM (6 of 6 replicates; controls 0 of 18). Variant HMYQSGLYESRNKNSVA / SASMRES / QQYHRLPLS [GP_Gibbs] gave 1.2 nM (6 of 6 replicates; controls 1 of 18). For KSSQSYHYESRNKNSVA / GASTRES / QQYHRLPLS [GP_HC], the assay gave 4.2 nM (6 of 6 replicates; controls 0 of 18). Variant KLSQSEEYESRNKNSVA / EASTRES / QQYHRLPLS [GP_Gen] showed 21 nM (6 of 6 replicates; controls 1 of 18).

With KSSHSVLYESRNKKSVA / HASTRES / YQPHRLPLS [Ctrl] the result was 110 nM (1 of 6 replicates; controls 0 of 18). With KSSQSVLEESRNKNSVA / GASTREI / QQYHRLPPS [Ctrl] the result was 450 nM (6 of 6 replicates; controls 0 of 18). With KSSQSVLYESRNPNSVA / WASTREV / QHYHRLPLS [Ctrl] the result was 80 nM (2 of 6 replicates; controls 0 of 18). With KSQQSVLYESRNKNNVA / GASTRED / QQYHRLPLS [GP_HC] the result was 1.6 nM (6 of 6 replicates; controls 1 of 18). Variant KLSQSELYESRNKNSVA / EASQREE / QQYHRLPLS [GP_Gen] gave 330 pM (6 of 6 replicates; controls 1 of 18). Variant KLEQSWPYESRNKNSVA / NASQRES / QQYHRLPLS [GP_Gen] gave 680 pM (6 of 6 replicates; controls 1 of 18). Variant KLQQSVLYESRNKNSVA / NGSTRES / QQYHRLPLS [GP_Gen] gave 1.3 nM (6 of 6 replicates; controls 0 of 18). Variant KSTQSVLMEERNKNSVA / WASTRES / QQYHRLPLS [Ctrl] gave 25 nM (2 of 6 replicates; controls 0 of 18). Variant KLMQSVLYESRNKNSVA / EASLRED / QQYHRLPLS [GP_HC] showed 1.3 nM (6 of 6 replicates; controls 1 of 18).

Variant KLPQSNLYESRNKNSVA / NASTREQ / QQYHRLPLS [GP_Gen] gave 600 pM (6 of 6 replicates; controls 3 of 18). With KSSQSCSYESRNKNSVA / SASTRES / FQYHRLPLS [Ctrl] the result was nd (0 of 6 replicates; controls 0 of 18). Variant KFSQSVLFESRNKNSVA / DASTRES / QQYHRLPLS [GPLM_HC] gave 420 pM (6 of 6 replicates; controls 0 of 18). Variant KLSQSVLYESRNKNSVA / EASTRES / QQYHRLPSS [GP_HC] gave 1.4 nM (6 of 6 replicates; controls 0 of 18). For KSSISYLGEMRNKNSVA / EASTRES / QQYHRLPLS [GP_HC], the assay gave 4.7 nM (6 of 6 replicates; controls 0 of 18). Variant KWEQAVLYESVNKNSVA / WASTRES / QQYHRLPLS [Ctrl] gave nd (0 of 6 replicates; controls 0 of 18). Variant KVDQSQLYESRNKNSVA / NASTRES / QQYHRLPLS [GP_Gen] showed 550 pM (6 of 6 replicates; controls 0 of 18). For KSSQVVLFESRNKNSVA / DASTGES / QQYHRLPLS [Rand], the assay gave 790 nM (1 of 6 replicates; controls 1 of 18). Variant KLSQSVLYESRMKNSVA / DASTRES / QQYHRLPLS [GP_Gen] showed 380 pM (6 of 6 replicates; controls 1 of 18).

Variant KISQSVLYESRNKNSVA / AASTRES / QQYHRLPLS [Ctrl] gave 530 pM (6 of 6 replicates; controls 2 of 18). Variant KSSQSQLYSSRNKNSVA / GASTRES / QQYHRLTLS [GP_HC] gave 480 pM (6 of 6 replicates; controls 0 of 18). For KSSQSVLYESRNKNSVA / SASTRES / QQYHHLPLS [Ctrl], the assay gave 7.0 nM (6 of 6 replicates; controls 0 of 18). For KLDQSVLYESRNKNSVA / AASTRES / QQYHRLPLS [GP_Gen], the assay gave 1.3 nM (6 of 6 replicates; controls 0 of 18). For KLEQSTLYESRNQNSVA / NASTRES / QQYHRLPLS [GP_HC], the assay gave 870 pM (6 of 6 replicates; controls 1 of 18). For KLSQSQLYESRNSKSVA / DASTRLS / QQYHRLPLS [GP_Gibbs], the assay gave 950 pM (6 of 6 replicates; controls 3 of 18). Variant KSSQGVLYESRNKNSVA / WASTRES / QYYHRLPLS [Ctrl] gave 66 nM (3 of 6 replicates; controls 0 of 18).

The opening 3 entries, copied out:

| CDR-L1 | CDR-L2 | CDR-L3 | group | Kd | detected | empty controls |
|---|---|---|---|---|---|---|
| KLRTSVMLESRNKNSVA | SASTRES | QQYHRLPLS | GP_Gibbs | 1.1 nM | 6/6 | 2/18 |
| KLYQSYLYESRNKNSVA | NASTRES | QQYHRLPLS | GP_Gen | 560 pM | 6/6 | 4/18 |
| KSMQSCLGESRNCNSVA | SASTREL | QQYHRLPLS | GP_Gibbs | 3.0 nM | 6/6 | 1/18 |